Laboratory results published in patent US20100323956A1.

Molecular target: GLP-1 receptor (UniProt P43220)
Assay: cell-based or functional assay

Question: What does the source list for native exendin-4 (peptide)?
Answer: EC50, real-time calcium mobilization assay (calcium flux, FLIPR) on cell line expressing native GLP-1 receptor; exendin-4 from Anaspec: 0.075 nM; EC50, real-time calcium mobilization assay (calcium flux, FLIPR) on cell line expressing native GLP-1 receptor; exendin-4 from Tocris: 0.11 nM
